Article PMC8085013, “Mixture interactions at mammalian olfactory receptors are dependent on the cellular environment” (Scientific Reports, 2021)

Key:
[1] = target: T1, mouse Olfr73 (Mus musculus, UniProt Q920P2); assay: GCaMP3 calcium imaging of mouse OSNs ectopically expressing Olfr73 (rAAV2/5), 5-s odorant pulse; format: cell-based; conditions: Ca2+ (GCaMP3)
T1 sequence (Q920P2 1-313): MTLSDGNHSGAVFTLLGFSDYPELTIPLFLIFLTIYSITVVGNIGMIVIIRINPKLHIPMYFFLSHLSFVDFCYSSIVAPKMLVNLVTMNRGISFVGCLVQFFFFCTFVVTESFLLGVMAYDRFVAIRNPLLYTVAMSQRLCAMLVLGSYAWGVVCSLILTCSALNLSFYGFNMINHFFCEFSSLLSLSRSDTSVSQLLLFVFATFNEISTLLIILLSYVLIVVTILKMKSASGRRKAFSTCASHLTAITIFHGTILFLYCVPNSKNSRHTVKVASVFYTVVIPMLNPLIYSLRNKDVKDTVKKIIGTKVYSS

[2] = target: T1, mouse Olfr73; format: cell-based; conditions: HEK293 short odor Ca2+, Gq11; response normalized to 5 mM eugenol

Work on isoeugenol yielded an EC50 [1] of 117 ± 45 µM and an EC50 [2] of 23 ± 8 µM.

Read-outs that look alike come from different tables or passages of the source.
